Amino acid sequences for entries named in this document (tags omitted).
UniProt P47747, whole entry: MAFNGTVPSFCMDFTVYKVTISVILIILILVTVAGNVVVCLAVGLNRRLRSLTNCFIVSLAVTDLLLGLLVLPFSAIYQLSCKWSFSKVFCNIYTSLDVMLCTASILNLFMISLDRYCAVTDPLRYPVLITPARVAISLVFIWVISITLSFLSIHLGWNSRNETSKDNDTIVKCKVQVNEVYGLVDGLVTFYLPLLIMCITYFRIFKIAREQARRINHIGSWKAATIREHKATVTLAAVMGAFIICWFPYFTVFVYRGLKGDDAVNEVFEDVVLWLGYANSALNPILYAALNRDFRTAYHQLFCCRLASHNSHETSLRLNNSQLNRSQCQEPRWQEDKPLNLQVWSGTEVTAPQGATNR

In ChEMBL document CHEMBL1123583 (J Med Chem, 1987):

How the values were obtained:
Histamine H2 receptor [1] = target: T1, Histamine H2 receptor (Cavia porcellus, UniProt P47747); assay: Antagonistic activity against Histamine H2 receptor expressed as the charge of receptor sensitivity was determined at pH 7.8; format: functional; conditions: read-out: pA2 (converted)
Histamine H2 receptor [2] = target: T1, Histamine H2 receptor; assay: Antagonistic activity against Histamine H2 receptor expressed as the charge of receptor sensitivity was determined at pH 7.0; format: functional; conditions: read-out: pA2 (converted)

Molecule `CN/C(=N/CCSCc1nc[nH]c1C)NC#N` [CIMETIDINE] has a Kb (Histamine H2 receptor [1]) of 372 nM and a Kb (Histamine H2 receptor [2]) of 955 nM.
